SMILES strings stand for the structures.

The chains behind the UniProt entries cited, without tags or fusion partners.
UniProt P40763, whole entry: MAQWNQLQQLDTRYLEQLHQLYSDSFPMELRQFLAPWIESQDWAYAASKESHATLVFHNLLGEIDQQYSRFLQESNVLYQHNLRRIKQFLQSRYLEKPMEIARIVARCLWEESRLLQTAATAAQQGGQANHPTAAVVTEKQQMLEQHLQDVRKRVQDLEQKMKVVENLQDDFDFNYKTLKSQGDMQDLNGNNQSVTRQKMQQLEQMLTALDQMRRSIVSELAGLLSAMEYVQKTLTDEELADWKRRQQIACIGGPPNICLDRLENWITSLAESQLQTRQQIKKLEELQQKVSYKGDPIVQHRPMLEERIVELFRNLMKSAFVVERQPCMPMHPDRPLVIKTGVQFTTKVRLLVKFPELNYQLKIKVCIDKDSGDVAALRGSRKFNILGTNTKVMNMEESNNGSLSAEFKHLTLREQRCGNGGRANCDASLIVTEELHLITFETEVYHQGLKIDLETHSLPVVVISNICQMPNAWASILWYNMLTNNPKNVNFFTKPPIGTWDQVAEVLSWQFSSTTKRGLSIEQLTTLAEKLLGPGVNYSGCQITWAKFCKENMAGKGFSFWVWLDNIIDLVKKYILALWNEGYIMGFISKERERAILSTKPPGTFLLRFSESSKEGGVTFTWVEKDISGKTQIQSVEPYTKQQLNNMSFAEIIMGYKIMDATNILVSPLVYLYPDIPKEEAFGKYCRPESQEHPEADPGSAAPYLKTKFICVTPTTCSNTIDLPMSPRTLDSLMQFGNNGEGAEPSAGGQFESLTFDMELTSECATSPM

One assay has as its target Stat3 (Homo sapiens, UniProt P40763). Description: Stat3 SH2/pY-peptide binding assay (SPR, BIAcore). As to conditions: read-out: SPR IC50; Table 6, mean ± SD. On the technique in general: Surface plasmon resonance follows binding to a sensor surface in real time, without labels.
For assay [1], the system named is SUM159PT and HS578T cells. The experiment in a line: Mammosphere assay (MSFE) in vitro. Format: cell-based.

For orientation: IC50 means the concentration at which inhibition is half-maximal. Take `O=S(=O)(Nc1cc(Sc2ncn[nH]2)c(O)c2ccccc12)c1ccc(Br)cc1`: the half-maximal inhibitory concentration (IC50) at Stat3 amounted to 2 µM. For the same compound, the “effect on self-renewal as measured by MSFE” value in assay [1] (initial studies) was “affects self-renewal”. In assay [1] (relative to parent compound), the “activity in decreasing MSFE compared with parent Cpd188” value is recorded as 1 log greater activity.

Regarding `Cc1cc(C)c(S(=O)(=O)Nc2cc(Cl)c(O)c3ccccc23)cc1C`, the 50% inhibitory concentration (IC50) on Stat3 was found to be 8 µM; in assay [1] (read-out: Mammosphere ~IC50, SUM159PT and HS578T cells, compound at 1, 10 or 100 μM, spheres counted on day 3) it was 30 µM.
